Test system: Bax
Experiment: Subcellular localization / mitochondrial translocation of Bax (fractionation, Western blot, confocal)
Format: cell-based
Description: FIG. 6. Ku70 sequestered Bax from mitochondria. FIG. 6A: Subcellular localization of Bax and Ku70. HeLa cells (10^7 cells) were transfected with 10 μg pCMV-2B (Control, STS,) or pCMV-2B-Ku70 (STS+Ku70). One day following transfection, except in the control group (Control), cells were treated by 200 nM STS (STS). One day after STS-treatment, cells were collected and subcellular fractionation was performed as described in Experimental Procedure. The levels of Ku70 (Ku70) and Bax (Bax) in each fraction were analyzed by Western blotting as described in Experimental Procedure. FoF1 ATP synthase subunit α (F1α) and PCNA (PCNA) were used as markers for mitochondrial and nuclear fractions, respectively. HM stands for “Heavy Membrane” fraction containing mitochondria. FIG. 6B: Ku70 overexpression increased the capacity of Bax in the cytosol. HEK293T cells (10^7 cells) were transfected with 5.0 μg pcDNA3 and 10 μg pCMV-2B (Control), 5.0 μg pcDNA3-Bax and 10 μg pCMV-2B (Bax+Vector), or 5.0 μg pcDNA3-Bax and 10 μg pCMV-2B-Ku70 (Bax+Ku70). One day following transfection, cells were collected and subcellular fractionation and Western blot analyses of Bax and mitochondrial FoF1-ATP-synthase subunit F1α (F1α) were performed as described in Experimental Procedure. FIG. 6C: Caspase-independent disappearance of Ku70 during apoptosis. Hela cells (10^6 cells) were treated with 200 nM STS in the absence (STS) or presence of z-VAD-fmk (STS+z-VAD). One day following the treatment, cells were collected and fractionated as described in Experimental Procedure. Cytosol fractions (20 μg protein) were separated by SDS-PAGE and analyzed by Western blotting for Ku70 (anti-Ku70 monoclonal antibody, BD-Pharmingen) and β-Tubulin (anti-β-Tubulin monoclonal antibody, BD-Pharmingen) levels. […] MEFs derived from wild-type (Ku70+/+) or Ku70-knockout mice (Ku70−/−) were analyzed as described in FIG. 6A. […] MEFs derived from wild-type (Ku70+/+) or Ku70-deficient (Ku70−/−) mice were treated with STS (200 nM) and cells were analyzed at indicated various periods after treatment as described in FIG. 6A. […]

Ku70: human full length Ku70, 70 kDa subunit of Ku-complex (609 amino acids), expressed from pCMV-2B plasmid
accumulation of Bax in mitochondrial fraction caused by overexpression of Bax (HEK293T cells, Ku70 overexpression): suppressed the accumulation of Bax in mitochondrial fraction
mitochondrial translocation of Bax induced by STS-treatment or UVC-irradiation (HeLa cells 200 nM STS, HEK293T cells UVC 200 J/m^2): suppressed the mitochondrial translocation of Bax
Bax levels in the nucleus (Ku70-overexpression, STS- or UVC-treated cells): increased by Ku70-overexpression

Source: patent publication US20070036775A1, “Method of modulating or examining Ku70 levels in cells” (priority 2001, published 2007)
